The results in this text go back to patent US20220177542A1 (priority 2020, published 2022).

By UniProt entry, the sequences of proteins in these tests, tags left out. Where a name states a change or a piece, a line headed by the entry shows the natural chain unless it says otherwise. Residues count along the entry.
UniProt P01903, 26-216 limits assumed: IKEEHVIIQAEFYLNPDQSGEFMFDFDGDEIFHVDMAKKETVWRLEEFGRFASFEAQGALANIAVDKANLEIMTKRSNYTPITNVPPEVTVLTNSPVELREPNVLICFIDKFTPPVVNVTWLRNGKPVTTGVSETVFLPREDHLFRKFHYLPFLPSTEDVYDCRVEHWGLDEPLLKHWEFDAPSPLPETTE

In one test the target is T1, HLA-DRB1*15:01 monomer (Homo sapiens, UniProt P01903+P01911).
T1 construct: the extracellular domain of the MHC class II α chain and β chain to which leucine zipper motifs are added; leucine zipper motif
It is filed as binding.

The target of a further test is T2, HLA-DRB1*03:01 monomer (Homo sapiens, UniProt P01903+P01911, A100K/A102G/A103R/A169T/F55Y/I96L/K41T/L162R/M171V/P40S/Q125H/Q178H/Q39Y/R42S/S66N/T106N/T262R/W38E/Y61H).
T2 construct: the extracellular domain of the MHC class II α chain and β chain to which leucine zipper motifs are added; leucine zipper motif
It is filed as binding.

As for PKYVKQNTLKLAT, the “% pept exch” value was 85.12% on HLA-DRB1*15:01 monomer and 41.71% at HLA-DRB1*03:01 monomer.
